Test results: article PMC9598883, “An Optimized Workflow for the Discovery of New Antimicrobial Compounds Targeting Bacterial RNA Polymerase Complex Formation” (Antibiotics, 2022)
pIC50: −log10 of the molar value. In brackets after ≈: the same amount, converted by molar mass. Several values for one entry are separate records, joined by “and”; a condition that tells them apart may be missing. Equal entries are not always repeated. Where two headings read alike, the source gives them in different places.

Protein sequences, listed by entry. Tags and fused reporters are not part of them. Residues count along the entry.
UniProt P0A8T7, 1-334 limits assumed: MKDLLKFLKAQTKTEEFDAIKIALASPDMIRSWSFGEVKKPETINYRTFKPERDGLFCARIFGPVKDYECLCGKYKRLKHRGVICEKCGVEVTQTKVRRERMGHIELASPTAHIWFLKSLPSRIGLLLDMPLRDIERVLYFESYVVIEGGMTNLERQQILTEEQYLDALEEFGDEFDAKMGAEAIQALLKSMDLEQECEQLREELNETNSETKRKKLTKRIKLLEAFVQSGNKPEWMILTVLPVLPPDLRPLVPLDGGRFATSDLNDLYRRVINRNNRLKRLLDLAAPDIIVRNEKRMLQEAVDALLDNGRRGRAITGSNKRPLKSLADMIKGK
UniProt P0A8T7, whole entry: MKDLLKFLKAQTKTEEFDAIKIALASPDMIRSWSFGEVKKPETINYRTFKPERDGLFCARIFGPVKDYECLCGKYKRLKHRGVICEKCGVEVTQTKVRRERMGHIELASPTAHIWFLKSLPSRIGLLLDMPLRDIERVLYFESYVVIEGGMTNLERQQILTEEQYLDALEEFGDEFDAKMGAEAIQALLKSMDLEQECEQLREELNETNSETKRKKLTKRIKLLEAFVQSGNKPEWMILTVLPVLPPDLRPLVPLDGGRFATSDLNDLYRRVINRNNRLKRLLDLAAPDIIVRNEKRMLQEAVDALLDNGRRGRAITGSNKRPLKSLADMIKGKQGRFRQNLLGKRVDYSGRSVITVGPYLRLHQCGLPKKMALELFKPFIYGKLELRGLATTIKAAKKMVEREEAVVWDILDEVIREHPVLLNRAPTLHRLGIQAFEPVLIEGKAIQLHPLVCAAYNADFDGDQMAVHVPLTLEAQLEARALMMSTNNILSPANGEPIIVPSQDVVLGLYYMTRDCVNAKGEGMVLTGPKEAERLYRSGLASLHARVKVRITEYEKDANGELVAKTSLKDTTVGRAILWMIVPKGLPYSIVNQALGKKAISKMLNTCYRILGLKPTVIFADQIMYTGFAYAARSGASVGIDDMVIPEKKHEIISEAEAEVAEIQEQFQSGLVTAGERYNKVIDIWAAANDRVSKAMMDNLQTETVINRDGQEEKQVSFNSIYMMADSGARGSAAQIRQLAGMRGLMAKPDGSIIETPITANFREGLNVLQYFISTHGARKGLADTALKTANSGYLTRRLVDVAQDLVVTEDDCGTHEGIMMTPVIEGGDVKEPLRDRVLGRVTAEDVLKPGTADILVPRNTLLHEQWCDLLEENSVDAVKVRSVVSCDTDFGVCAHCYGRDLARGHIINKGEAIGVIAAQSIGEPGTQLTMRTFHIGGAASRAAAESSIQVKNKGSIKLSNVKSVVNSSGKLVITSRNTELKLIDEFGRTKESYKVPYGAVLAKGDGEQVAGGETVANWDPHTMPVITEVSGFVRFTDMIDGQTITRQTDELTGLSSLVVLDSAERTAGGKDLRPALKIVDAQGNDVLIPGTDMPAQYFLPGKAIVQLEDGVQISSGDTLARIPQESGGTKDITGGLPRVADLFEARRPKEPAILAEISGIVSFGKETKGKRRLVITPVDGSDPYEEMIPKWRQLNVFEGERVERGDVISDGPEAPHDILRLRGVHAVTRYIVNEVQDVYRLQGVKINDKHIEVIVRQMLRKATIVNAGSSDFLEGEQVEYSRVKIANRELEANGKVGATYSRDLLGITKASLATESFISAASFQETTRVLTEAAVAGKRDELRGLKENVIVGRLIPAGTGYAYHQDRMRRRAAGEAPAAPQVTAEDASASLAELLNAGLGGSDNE
UniProt P0A800, whole entry partner: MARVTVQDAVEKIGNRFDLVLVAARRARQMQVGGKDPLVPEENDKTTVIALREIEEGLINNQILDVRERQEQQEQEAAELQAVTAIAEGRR
UniProt P0A8V2, whole entry partner: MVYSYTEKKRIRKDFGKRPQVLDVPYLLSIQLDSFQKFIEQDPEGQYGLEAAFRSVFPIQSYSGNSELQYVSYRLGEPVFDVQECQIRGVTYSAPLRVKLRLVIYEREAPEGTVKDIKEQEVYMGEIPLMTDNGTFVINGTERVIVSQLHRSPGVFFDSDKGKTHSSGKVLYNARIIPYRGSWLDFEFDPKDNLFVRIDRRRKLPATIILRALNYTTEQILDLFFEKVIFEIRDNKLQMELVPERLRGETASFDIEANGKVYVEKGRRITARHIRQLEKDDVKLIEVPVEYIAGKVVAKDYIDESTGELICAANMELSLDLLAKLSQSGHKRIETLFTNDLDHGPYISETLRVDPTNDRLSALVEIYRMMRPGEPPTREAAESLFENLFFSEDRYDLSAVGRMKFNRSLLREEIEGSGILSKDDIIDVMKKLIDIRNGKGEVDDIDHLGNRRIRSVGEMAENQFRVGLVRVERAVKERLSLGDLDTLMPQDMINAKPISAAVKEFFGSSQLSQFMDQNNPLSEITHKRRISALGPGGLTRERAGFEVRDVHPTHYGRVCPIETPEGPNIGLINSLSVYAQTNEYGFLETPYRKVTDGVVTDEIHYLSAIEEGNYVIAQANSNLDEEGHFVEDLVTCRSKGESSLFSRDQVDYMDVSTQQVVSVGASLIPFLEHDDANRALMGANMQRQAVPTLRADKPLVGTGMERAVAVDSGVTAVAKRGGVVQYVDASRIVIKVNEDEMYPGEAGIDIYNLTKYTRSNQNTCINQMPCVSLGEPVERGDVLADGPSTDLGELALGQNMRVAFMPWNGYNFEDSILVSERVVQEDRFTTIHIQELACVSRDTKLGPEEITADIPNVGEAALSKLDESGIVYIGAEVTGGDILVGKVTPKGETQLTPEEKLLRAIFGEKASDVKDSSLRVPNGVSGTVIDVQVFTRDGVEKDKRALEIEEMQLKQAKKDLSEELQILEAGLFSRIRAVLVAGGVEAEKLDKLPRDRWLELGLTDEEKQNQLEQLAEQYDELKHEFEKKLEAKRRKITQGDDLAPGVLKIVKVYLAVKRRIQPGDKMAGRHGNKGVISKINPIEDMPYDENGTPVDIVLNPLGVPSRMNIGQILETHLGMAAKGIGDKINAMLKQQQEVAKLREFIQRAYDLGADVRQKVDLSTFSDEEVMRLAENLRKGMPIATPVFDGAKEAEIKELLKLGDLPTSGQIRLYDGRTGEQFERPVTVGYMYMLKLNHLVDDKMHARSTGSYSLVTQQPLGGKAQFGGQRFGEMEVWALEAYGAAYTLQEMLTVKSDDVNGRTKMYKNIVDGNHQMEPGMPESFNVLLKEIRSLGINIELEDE
UniProt P0A7Z4, whole entry partner: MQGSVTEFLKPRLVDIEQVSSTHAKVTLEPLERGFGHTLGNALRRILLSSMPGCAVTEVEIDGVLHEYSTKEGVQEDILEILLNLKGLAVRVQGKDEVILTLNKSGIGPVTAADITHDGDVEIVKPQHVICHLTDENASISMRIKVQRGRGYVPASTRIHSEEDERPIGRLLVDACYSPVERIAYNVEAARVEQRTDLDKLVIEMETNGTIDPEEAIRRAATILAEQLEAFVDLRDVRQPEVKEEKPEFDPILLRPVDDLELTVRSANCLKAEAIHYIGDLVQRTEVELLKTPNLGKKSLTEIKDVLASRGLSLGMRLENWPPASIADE

Key:
[1] = tested on: Saccharomyces cerevisiae (W303); experiment: Yeast growth inhibition assay; assay type: cell-based; conditions: wild-type W303
[2] = molecular target: E. coli RNAPc with recombinant σ^70 (holoenzyme) (Escherichia coli, UniProt P0A8T7); experiment: Fluorescence-detected single-round in vitro transcription assay; assay type: biochemical; conditions: read-out: In vitro transcription IC50, fluorescence-based assay
[3] = molecular target: T1, β′–σ^70 PPI (GST-β′ aa 1–334 / His-tagged σ^70) (Escherichia coli, UniProt P0A8T7); conditions: cited from earlier work
E. coli (DH10T1R strain) = experiment: Bacterial growth inhibition assay, E. coli; assay type: cell-based, Escherichia coli; conditions: for Growth Inhibition at 100 μM (8 h) E. coli: in the presence of PMBN (2 μg/mL)
RNAP = conditions: cited from earlier work
B. subtilis WB800N = experiment: MIC assay, B. subtilis; assay type: cell-based, Bacillus subtilis
[4] = tested on: B. subtilis (WB800N strain); experiment: Bacterial growth inhibition assay, B. subtilis; assay type: cell-based, Bacillus subtilis
E. coli DH10T1R = experiment: MIC assay, E. coli; assay type: cell-based, Escherichia coli; conditions: in the presence of PMBN (2 μg/mL)
[5] = molecular target: T1, β′–σ^70 PPI (GST-β′ aa 1–334 / His-tagged σ^70); experiment: Competitive ELISA of β′–σ^70 interaction; assay type: binding, E. coli; conditions: for β′–σ70 binding inhibition, ELISA 100 μM (percentage inhibition ± SD): fixed concentration of 100 μM; for pIC50: read-out: Binding Inhibition IC50 ± SD

Row | SMILES | Growth Inhibition at 100 μM (8 h) S. cerevisiae [1] | pIC50 [2] | pIC50 [3] | Growth Inhibition at 100 μM (8 h) E. coli (E. coli (DH10T1R strain)) | pIC50 (RNAP) | MIC B. subtilis (B. subtilis WB800N) | Growth Inhibition at 100 μM (8 h) B. subtilis [4] | MIC E. coli (E. coli DH10T1R) | β′–σ70 binding inhibition, ELISA 100 μM (percentage inhibition ± SD) [5] | pIC50 ([5]; dose–response ELISA) | B. subtilis growth inhibition over time ([4]; only at 100 µM) | E. coli growth inhibition at lowest concentration (E. coli (DH10T1R strain); 10 µM, 8 h observation, with PMBN) | Fold less potent than reference compound 4 (binding inhibition IC50) ([5]; dose–response ELISA) | E. coli growth inhibition over time (E. coli (DH10T1R strain); 100 µM)
1 | O=C(Nc1ccc(Cl)cc1)Nc1c(-c2cccnc2)[nH]c2ccc(F)cc12 | 0% | 4.57 | 5.09 | 91% | 4.54 and 4.55 | 50 µM (≈ 19 µg/mL) | 73% | 25 µM |  |  |  |  |  | 
2 | CC(=O)Oc1ccc2c(OC(C)=O)c(-c3ccc(F)cc3)oc2c1 | 0% |  |  | 29% |  | 50 µM (≈ 16.4 µg/mL) | 40% | 50 µM | 100% | 4.79 | significantly inhibited |  |  | 
3 | N#Cc1cc2cnccc2c2[nH]c3ncccc3c12 | 1% |  |  | 92% |  |  | 19% | 1.56 µM |  |  |  | completely inhibited |  | 
4 | CCN(CC)CCSCC(=O)c1ccc2[nH]c3ncc(Cl)cc3c2c1 | 0% |  |  | 30% |  | 100 µM (≈ 37.6 µg/mL) | 15% | 12.5 µM | 55±1% | 4.10 |  |  | 10 fold | only partially effective
